Tested on: MDCKII-MDR1 cells
Experiment: MDCKII-MDR1 permeability

SMILES: COc1cc(Nc2c(C#N)cnc3cc(OCCCN4CCN(C)CC4)c(OC)cc23)c(Cl)cc1Cl [Bosutinib, bosutinib, reference compound]
- efflux (P-gp), in words: still substrates for P-gp
